Measurements published in PubChem BioAssay AID1135 (Sanford-Burnham Center for Chemical Genomics, 2008).
The entries are a selection whose mix differs from that of the whole data set. Active and inactive are the calls of the source.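 Rule for the calls: active = over 50% inhibition of tissue-nonspecific alkaline phosphatase at 20 µM in the single-dose screen; inactive = the rest.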

Sequences of proteins named here, by UniProt entry; tags and fusion partners are left off.
UniProt P05186, whole entry: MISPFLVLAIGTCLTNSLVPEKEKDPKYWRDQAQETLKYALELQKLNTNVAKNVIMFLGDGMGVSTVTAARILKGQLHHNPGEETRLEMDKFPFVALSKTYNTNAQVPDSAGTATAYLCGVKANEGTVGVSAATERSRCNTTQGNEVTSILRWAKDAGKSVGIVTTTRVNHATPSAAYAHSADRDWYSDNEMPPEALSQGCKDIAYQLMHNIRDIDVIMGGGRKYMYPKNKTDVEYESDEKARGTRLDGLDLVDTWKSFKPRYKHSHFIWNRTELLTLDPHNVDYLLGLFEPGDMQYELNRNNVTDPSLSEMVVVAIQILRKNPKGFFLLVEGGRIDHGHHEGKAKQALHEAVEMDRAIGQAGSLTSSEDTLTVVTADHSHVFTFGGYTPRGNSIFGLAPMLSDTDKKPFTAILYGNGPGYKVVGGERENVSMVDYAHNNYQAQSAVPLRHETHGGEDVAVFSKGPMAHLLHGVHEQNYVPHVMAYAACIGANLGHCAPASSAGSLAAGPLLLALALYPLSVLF

What follows are molecules tested against Alkaline phosphatase, tissue-nonspecific isozyme (Homo sapiens) (UniProt P05186) (assay: human TNAP enzyme inhibitors, primary screen, biochemical, luminescent, high phosphate acceptor level, uHTS (AID 1135;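 note: plate controls were DMSO wells for no effect and EDTA-quenched wells as full inhibition for full effect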)). Settings: purified TNAP, CDP-star luminescence, 1 M DEA; at 20 µM; stronger effect = higher value.

Compound	inhibition
Cc1c2c(nc3ccccc13)SC(C(Cl)Cl)C2 (configuration not stated)	inactive: -1.6%
CP(=O)(Nc1cccc(Br)c1)Oc1ccccc1 (configuration not stated)	inactive: -3.9%
